Assay results: patent publication US20100285988A1 (published 2010)
Like-named read-outs stand apart in the source and are kept apart here.

Tests used:
[1] = molecular target: T1, γ-secretase (human; HeLa cell membrane / solubilized HeLa membrane; endogenous in HEK293 cells) (human, UniProt P49768 1-467; Q92542 34-709; Q9NZ42 1-101; Q96BI3 1-265)
[2] = molecular target: T1, γ-secretase (human; HeLa cell membrane …); remark: listed apart in the source

B1: Aβ17-23BPA^19 (peptide)
peptide: LVFFAED
modifications: p-benzoyl-L-phenylalanine (BPA) in place of Phe at position 19 of Aβ (3rd residue of LVFFAED)
IC50 [1]: 5 µM

B2: Aβ17-20 (LVFF) peptide (peptide)
peptide: LVFF
IC50 [1]: 8.7 µM

B3: Aβ17-21 (LVFFA) peptide (peptide)
peptide: LVFFA
IC50 [1]: 0.8 µM

B4: Aβ17-23 (LVFFAED) peptide (peptide)
peptide: LVFFAED
IC50 [2]: 1.58 µM
